Reference: publication PMC5753033

Biological target: mCherry-WAVE1 PWCA (274–559aa), for surface immobilization (human) (UniProt Q92558)

## Native, cytoplasmic actin from Acanthamoeba castellanii, monomeric (natural protein)
  elongation of surface-proximal filaments on immobilised PWCA in 1 μM monomeric actin, compared to immobilised mCherry (TIRF): 3.5 fold
